For one molecule, IC50 results are on record in article PMC12610713, “Inhibition Profiling of Rhodiola crenulata on Lactate Dehydrogenase Isoenzymes” (Molecules, 2025).

The chains behind the UniProt entries cited, without tags or fusion partners.
UniProt P07195, whole entry: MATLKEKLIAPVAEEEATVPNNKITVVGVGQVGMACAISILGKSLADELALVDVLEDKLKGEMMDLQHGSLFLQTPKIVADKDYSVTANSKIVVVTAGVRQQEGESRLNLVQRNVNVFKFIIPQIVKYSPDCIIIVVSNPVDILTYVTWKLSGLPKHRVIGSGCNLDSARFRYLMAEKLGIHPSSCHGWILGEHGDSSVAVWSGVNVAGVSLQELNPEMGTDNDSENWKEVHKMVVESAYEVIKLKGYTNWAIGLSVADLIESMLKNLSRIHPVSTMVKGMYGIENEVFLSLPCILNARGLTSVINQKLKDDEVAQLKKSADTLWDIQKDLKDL

SMILES strings stand for the structures.

The target in the experiment is T1, recombinant LDHB (Homo sapiens, UniProt P07195).
T1 construct: His-tag; made in house; host or cells: E. coli BL21(DE3)
Put plainly: LDHB enzyme activity inhibition assay (NADH oxidation, 340 nm). In kind it is biochemical. The procedure: The Z’ factor (Z’ = 1 − [3 × (σₚ + σₙ)]/|μₚ − μₙ|) was used to evaluate the robustness of the screening platform, where σ represents the standard deviation, μ represents the mean value, p denotes enzyme activity, and n denotes the background signal. […] (2) The enzyme-inhibitor mixture was pre-incubated for 10 min at room temperature. […] (4) At 30 °C, the enzymatic reaction was monitored at 340 nm for 20 min.
For the enzyme activity assay, the concentrations of the R. crenulata extract were 20 µg/mL, while the 19 isolated components was assayed at 10 µM and 40 µM.

Turning to `Cc1cc2c(C(C)C)c(O)c(O)c(C=O)c2c(O)c1-c1c(C)cc2c(C(C)C)c(O)c(O)c(C=O)c2c1O` [gossypol, reference compound], the IC50 (commonly the midpoint of a concentration-inhibition curve) came out at 270 ± 40 nM.
